3 substances from patent US20260102359A1, “COMBINATION TREATMENT OF DERMAL AND TRANSDERMAL FIBROTIC DISEASES, DISORDERS AND ASSOCIATED PAIN AND INFLAMMATION” (ERESINA, LLC, priority 2022, published 2026) can be followed below.

For this data set, the system named is hDMFa myofibroblast cells. On the set-up: key to the marks not given beside the values.
On to Dovitinib (TKI-258,CHIR-258) [Cmpd 382], for which the “Compound Myofibroblast Cytotoxicity Activity” value is given as “++”.

Regarding Prostaglandin F2α [Cmpd 803], the “Compound Myofibroblast Cytotoxicity Activity” value is “++++”.

On to “tetrahydro-L-Biopterin (hydrochloride) [Cmpd 935]”, for which the “Compound Myofibroblast Cytotoxicity Activity” value was “+++”.
